Data taken from patent US12318403B2, “2′3′-cyclic dinucleotides and prodrugs thereof” (INSTITUTE OF ORGANIC CHEMISTRY AND BIOCHEMISTRY ASCR, V.V.I., priority 2019, dated 2025).

Amino acid sequences for entries named in this document (tags omitted).
UniProt Q86WV6, whole entry H232R: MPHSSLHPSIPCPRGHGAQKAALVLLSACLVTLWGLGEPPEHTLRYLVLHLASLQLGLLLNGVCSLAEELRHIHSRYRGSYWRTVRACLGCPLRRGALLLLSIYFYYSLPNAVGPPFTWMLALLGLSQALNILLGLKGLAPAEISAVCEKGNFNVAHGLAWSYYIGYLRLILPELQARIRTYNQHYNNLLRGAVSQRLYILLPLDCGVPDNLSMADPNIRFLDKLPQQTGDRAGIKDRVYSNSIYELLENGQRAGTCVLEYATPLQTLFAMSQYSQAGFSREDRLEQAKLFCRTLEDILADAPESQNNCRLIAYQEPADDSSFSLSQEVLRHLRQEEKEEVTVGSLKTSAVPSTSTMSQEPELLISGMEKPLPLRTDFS

Each molecule was assayed against human wild type STING (WT STING) (Homo sapiens, UniProt Q86WV6, H232R) (assay: 293T WT STING standard reporter assay). Conditions: 293T WT STING EC50, 293T wtSTING-FL cells; standard reporter assay without digitonin; 7 hours; ISRE firefly luciferase.
Type: cell-based
`CC(C)(C)C(=O)Oc1ccc(CSP2(=O)OC[C@H]3O[C@@H](n4cnc5c(N)ncnc54)[C@H](F)[C@@H]3OCP(=O)(O)OC[C@H]3O[C@@H](n4cnc5c(=O)[nH]c(N)nc54)[C@H](O2)[C@@H]3F)cc1` (single isomer, unassigned) [Compound 37b] gave an EC50 of 90 nM.
With `CCCCCC(=O)Oc1ccc(CSP2(=O)OC[C@H]3O[C@@H](n4cnc5c(N)ncnc54)[C@H](F)[C@@H]3OCP(=O)(O)OC[C@H]3O[C@@H](n4cnc5c(=O)[nH]c(N)nc54)[C@H](O2)[C@@H]3F)cc1` (single isomer, unassigned) [Compound 31b] the EC50 was 40 nM.
Molecule `CC(C)(C)C(=O)OCOc1ccc(CSP2(=O)OC[C@H]3O[C@@H](n4cnc5c(N)ncnc54)[C@H](F)[C@@H]3OCP(=O)(O)OC[C@H]3O[C@@H](n4cnc5c(=O)[nH]c(N)nc54)[C@H](O2)[C@@H]3F)cc1` (single isomer, unassigned) [Compound 39a] has an EC50 of 170 nM.
Work on `CC(C)(C)C(=O)OCSP1(=O)OC[C@H]2O[C@@H](n3cnc4c(N)ncnc43)[C@H](F)[C@@H]2OCP(=O)(O)OC[C@H]2O[C@@H](n3cnc4c(=O)[nH]cnc43)[C@H](O1)[C@@H]2F` (single isomer, unassigned) [Compound 50b] yielded an EC50 of 900 nM.
Molecule `CCCCCC(=O)Oc1ccc(C(=O)Oc2ccc(CSP3(=O)OC[C@H]4O[C@@H](n5cnc6c(N)ncnc65)[C@H](F)[C@@H]4OCP(=O)(O)OC[C@H]4O[C@@H](n5cnc6c(=O)[nH]c(N)nc65)[C@H](O3)[C@@H]4F)cc2)cc1` (single isomer, unassigned) [Compound 40b] has an EC50 of 10 nM.
`CCCC(=O)Oc1ccc(CSP2(=O)OC[C@H]3O[C@@H](n4cnc5c(N)ncnc54)[C@H](F)[C@@H]3OCP(=O)(O)OC[C@H]3O[C@@H](n4cnc5c(=O)[nH]c(N)nc54)[C@H](O2)[C@@H]3F)cc1` (single isomer, unassigned) [Compound 36b] gave an EC50 of 160 nM.
In the case of `CCCCCCCCCCCC(=O)OCSP1(=O)OC[C@H]2O[C@@H](n3cnc4c(N)ncnc43)[C@H](F)[C@@H]2OCP(=O)(O)OC[C@H]2O[C@@H](n3cnc4c(=O)[nH]c(N)nc43)[C@H](O1)[C@@H]2F` (single isomer, unassigned) [Compound 57a], the EC50 is reported as 30 nM.
With `CCCCCCCC(=O)OCSP1(=O)OC[C@H]2O[C@@H](n3cnc4c(N)ncnc43)[C@H](F)[C@@H]2OCP(=O)(O)OC[C@H]2O[C@@H](n3cnc4c(=O)[nH]cnc43)[C@H](O1)[C@@H]2F` (stereo partly drawn) [Compound 63b, {[(1S,6R,8R,9R,10R,16R,18R,19R)-8-(6-amino-9H-purin-9-yl)-9,19-difluoro-13-hydroxy-3,13-dioxo-18-(6-oxo-6,9-dihydro-1H-purin-9-yl)-2,4,7,11,14,17-hexaoxa-3λ^5,13λ^5-diphosphatricyclo[14.2.1.0^6,10]nonadecan-3-yl]sulfanyl}methyl octanoate] the EC50 was 600 nM.
In the case of `CCCCCCCCCC(=O)Oc1ccc(CSP2(=O)OC[C@H]3O[C@@H](n4cnc5c(N)ncnc54)[C@H](F)[C@@H]3OCP(=O)(O)OC[C@H]3O[C@@H](n4cnc5c(=O)[nH]c(N)nc54)[C@H](O2)[C@@H]3F)cc1` (single isomer, unassigned) [Compound 35b], the EC50 is reported as 80 nM.
With `CCCCCCCCCCCCCCCCOC(=O)OCSP1(=O)OC[C@H]2O[C@@H](n3cnc4c(N)ncnc43)[C@H](F)[C@@H]2OCP(=O)(O)OC[C@H]2O[C@@H](n3cnc4c(=O)[nH]cnc43)[C@H](O1)[C@@H]2F` (stereo partly drawn) [Compound 73b, {[(1S,6R,8R,9R,10R,16R,18R,19R)-8-(6-amino-9H-purin-9-yl)-9,19-difluoro-13-hydroxy-3,13-dioxo-18-(6-oxo-6,9-dihydro-1H-purin-9-yl)-2,4,7,11,14,17-hexaoxa-3λ^5,13λ^5-diphosphatricyclo[14.2.1.0^6,10]nonadecan-3-yl]sulfanyl}methyl hexadecyl carbonate] the EC50 was 60 nM.
With `CC(C)(C)C(=O)OCOc1ccc(CSP2(=O)OC[C@H]3O[C@@H](n4cnc5c(N)ncnc54)[C@H](F)[C@@H]3OCP(=O)(O)OC[C@H]3O[C@@H](n4cnc5c(=O)[nH]c(N)nc54)[C@H](O2)[C@@H]3F)cc1` (single isomer, unassigned) [Compound 39b] the EC50 was 40 nM.
Work on `CC(C)(C)C(=O)OCSP1(=O)OC[C@H]2O[C@@H](n3cnc4c(N)ncnc43)[C@H](F)[C@@H]2OCP(=O)(O)OC[C@H]2O[C@@H](n3cnc4c(=O)[nH]cnc43)[C@H](O1)[C@@H]2F` (single isomer, unassigned) [Compound 50a] yielded an EC50 of 1900 nM.
Molecule `CCCCCCCCCCCCCCCCCCOC(=O)OCSP1(=O)OC[C@H]2O[C@@H](n3cnc4c(N)ncnc43)[C@H](F)[C@@H]2OCP(=O)(O)OC[C@H]2O[C@@H](n3cnc4c(=O)[nH]cnc43)[C@H](O1)[C@@H]2F` (stereo partly drawn) [Compound 74b, {[(1S,6R,8R,9R,10R,16R,18R,19R)-8-(6-amino-9H-purin-9-yl)-9,19-difluoro-13-hydroxy-3,13-dioxo-18-(6-oxo-6,9-dihydro-1H-purin-9-yl)-2,4,7,11,14,17-hexaoxa-3λ^5,13λ^5-diphosphatricyclo[14.2.1.0^6,10]nonadecan-3-yl]sulfanyl}methyl octadecyl carbonate] has an EC50 of 30 nM.
In the case of `CC(C)(C)C(=O)Oc1ccc(CSP2(=O)OC[C@H]3O[C@@H](n4cnc5c(N)ncnc54)[C@H](F)[C@@H]3OCP(=O)(O)OC[C@H]3O[C@@H](n4cnc5c(=O)[nH]c(N)nc54)[C@H](O2)[C@@H]3F)cc1` (single isomer, unassigned) [Compound 37a], the EC50 is reported as 600 nM.
`CC(C)(C)C(=O)OCOc1ccc(C(=O)OCSP2(=O)OC[C@H]3O[C@@H](n4cnc5c(N)ncnc54)[C@H](F)[C@@H]3OCP(=O)(O)OC[C@H]3O[C@@H](n4cnc5c(=O)[nH]c(N)nc54)[C@H](O2)[C@@H]3F)cc1` (stereo partly drawn) [Compound 62b, {[(1S,6R,8R,9R,10R,16R,18R,19R)-18-(2-amino-6-oxo-6,9-dihydro-1H-purin-9-yl)-8-(6-amino-9H-purin-9-yl)-9,19-difluoro-13-hydroxy-3,13-dioxo-2,4,7,11,14,17-hexaoxa-3λ^5,13λ^5-diphosphatricyclo[14.2.1.0^6,10]nonadecan-3-yl]sulfanyl}methyl 4-{[(2,2-dimethylpropanoyl)oxy]methoxy}benzoate] showed an EC50 of 300 nM.
In the case of `CC(C)(C)C(=O)OCSP1(=O)OC[C@H]2O[C@@H](n3cnc4c(N)ncnc43)[C@H](F)[C@@H]2OCP(=O)(O)OC[C@H]2O[C@@H](n3cnc4c(=O)[nH]c(N)nc43)[C@H](O1)[C@@H]2F` (single isomer, unassigned) [Compound 32a], the EC50 is reported as 3800 nM.
In the case of `CCCCCCCCCCCCCC(=O)OCSP1(=O)OC[C@H]2O[C@@H](n3cnc4c(N)ncnc43)[C@H](F)[C@@H]2OCP(=O)(O)OC[C@H]2O[C@@H](n3cnc4c(=O)[nH]cnc43)[C@H](O1)[C@@H]2F` (single isomer, unassigned) [Compound 68b], the EC50 is reported as 50 nM.
For `CCCCCCCCCCCCOC(=O)OCSP1(=O)OC[C@H]2O[C@@H](n3cnc4c(N)ncnc43)[C@H](F)[C@@H]2OCP(=O)(O)OC[C@H]2O[C@@H](n3cnc4c(=O)[nH]cnc43)[C@H](O1)[C@@H]2F` (stereo partly drawn) [Compound 58b, {[(1S,6R,8R,9R,10R,16R,18R,19R)-8-(6-amino-9H-purin-9-yl)-9,19-difluoro-13-hydroxy-3,13-dioxo-18-(6-oxo-6,9-dihydro-1H-purin-9-yl)-2,4,7,11,14,17-hexaoxa-3λ^5,13λ^5-diphosphatricyclo[14.2.1.0^6,10]nonadecan-3-yl]sulfanyl}methyl dodecyl carbonate], the EC50 was 80 nM.
`CCCCCC(=O)Oc1ccc(CSP2(=O)OC[C@H]3O[C@@H](n4cnc5c(N)ncnc54)[C@H](F)[C@@H]3OCP(=O)(O)OC[C@H]3O[C@@H](n4cnc5c(=O)[nH]c(N)nc54)[C@H](O2)[C@@H]3F)cc1` (single isomer, unassigned) [Compound 31a] was tested, and the EC50 was 270 nM.
With `CCCCCCCCCCCCCCCCCC(=O)OCSP1(=O)OC[C@H]2O[C@@H](n3cnc4c(N)ncnc43)[C@H](F)[C@@H]2OCP(=O)(O)OC[C@H]2O[C@@H](n3cnc4c(=O)[nH]cnc43)[C@H](O1)[C@@H]2F` (stereo partly drawn) [Compound 66b, {[(1S,6R,8R,9R,10R,16R,18R,19R)-8-(6-amino-9H-purin-9-yl)-9,19-difluoro-13-hydroxy-3,13-dioxo-18-(6-oxo-6,9-dihydro-1H-purin-9-yl)-2,4,7,11,14,17-hexaoxa-3λ^5,13λ^5-diphosphatricyclo[14.2.1.0^6,10]nonadecan-3-yl]sulfanyl}methyl octadecanoate] the EC50 was 40 nM.
`CC(C)(C)C(=O)OCOc1ccc(C(=O)OCSP2(=O)OC[C@H]3O[C@@H](n4cnc5c(N)ncnc54)[C@H](F)[C@@H]3OCP(=O)(O)OC[C@H]3O[C@@H](n4cnc5c(=O)[nH]cnc54)[C@H](O2)[C@@H]3F)cc1` (stereo partly drawn) [Compound 61b, {[(1S,6R,8R,9R,10R,16R,18R,19R)-8-(6-amino-9H-purin-9-yl)-9,19-difluoro-13-hydroxy-3,13-dioxo-18-(6-oxo-6,9-dihydro-1H-purin-9-yl)-2,4,7,11,14,17-hexaoxa-3λ^5,13λ^5-diphosphatricyclo[14.2.1.0^6,10]nonadecan-3-yl]sulfanyl}methyl 4-{[(2,2-dimethylpropanoyl)oxy]methoxy}benzoate] was tested, and the EC50 was 4000 nM.
